Here are results for 1 substance from US10869850B2, “Nitrated-fatty acids modulation of type II diabetes” (University of Pittsburgh—Of the Commonwealth System of …, priority 2007, dated 2020).

By UniProt entry, the sequences of proteins in these tests, tags left out.
UniProt P37231, whole entry, species assumed: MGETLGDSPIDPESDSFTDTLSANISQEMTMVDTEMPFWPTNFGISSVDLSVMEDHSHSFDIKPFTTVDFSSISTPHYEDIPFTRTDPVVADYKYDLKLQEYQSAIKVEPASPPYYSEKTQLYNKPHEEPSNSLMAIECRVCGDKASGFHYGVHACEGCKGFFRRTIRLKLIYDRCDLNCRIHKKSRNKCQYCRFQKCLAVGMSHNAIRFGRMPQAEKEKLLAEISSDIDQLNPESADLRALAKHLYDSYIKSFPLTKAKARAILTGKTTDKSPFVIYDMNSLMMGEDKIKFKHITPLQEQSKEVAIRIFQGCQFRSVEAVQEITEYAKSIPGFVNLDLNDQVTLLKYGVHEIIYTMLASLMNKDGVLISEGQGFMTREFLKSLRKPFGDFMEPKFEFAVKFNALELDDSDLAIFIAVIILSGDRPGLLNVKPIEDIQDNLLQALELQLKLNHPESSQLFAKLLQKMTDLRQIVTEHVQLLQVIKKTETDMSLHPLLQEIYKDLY

This test addresses PPAR-γ (Homo sapiens, UniProt P37231). The test is described as follows: PPAR-γ agonist potency. The following applies: relative to nitro linoleic acid.

Turning to “9- or 10-nitro octadecenoic acid [nitro oleic acid]”, the “potency as an agonist of PPAR-γ” value is on record as “more potent as an agonist of PPAR-γ, relative to nitro linoleic acid”.
